Reference: PubChem BioAssay (Tox21)
Where “and” joins values, the source holds several entries; their conditions need not be identical. Identical values can stand only once. The entries are a selection whose mix differs from that of the whole data set. Records with an inconclusive call do not appear. A structure can be active in one record and inactive in another. Where a call stands in place of a potency, no number is given. Calls of active or inactive are those of the source. Calls come from the whole dose curve; as a rule, active = well fitted inhibition curve with a large enough effect in the repeat runs; inconclusive = weak or mixed curves; inactive = no such curve, though single readings can be large or run the other way.

Amino acid sequences for entries named in this document (tags omitted).
UniProt P33261, whole entry: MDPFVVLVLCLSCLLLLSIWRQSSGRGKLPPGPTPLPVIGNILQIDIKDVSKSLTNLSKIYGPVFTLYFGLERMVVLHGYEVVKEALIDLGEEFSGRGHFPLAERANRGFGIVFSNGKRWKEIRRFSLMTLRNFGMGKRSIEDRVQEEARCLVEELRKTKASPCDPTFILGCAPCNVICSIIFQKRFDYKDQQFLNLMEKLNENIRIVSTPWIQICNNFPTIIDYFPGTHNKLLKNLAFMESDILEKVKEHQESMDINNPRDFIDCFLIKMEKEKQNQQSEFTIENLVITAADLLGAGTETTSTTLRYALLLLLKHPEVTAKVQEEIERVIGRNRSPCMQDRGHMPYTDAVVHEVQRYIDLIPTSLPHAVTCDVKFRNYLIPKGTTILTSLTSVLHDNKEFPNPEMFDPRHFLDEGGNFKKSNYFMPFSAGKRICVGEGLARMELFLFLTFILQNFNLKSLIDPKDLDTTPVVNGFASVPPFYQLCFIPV

Each molecule was assayed against Cytochrome P450 2C19 (Homo sapiens) (UniProt P33261) (assay: Cytochrome P450 Family 2 Subfamily C Member 19 (CYP2C19) small molecule antagonists: luciferase reporter qHTS assay (AID 1671197; note: nearly all actives have a fitted effect of over 65% in size)). Settings: P450-Glo CYP2C19 enzyme, luciferin luminescence, 1 h; series mostly up to 115 µM.
Excerpt: National Center for Advancing Translational Sciences [NCATS]
U.S. Environmental Protection Agency [EPA]
National Institutes of Environmental Health Sciences [NIEHS]
National Toxicology Program [NTP]
U.S. Food and Drug Administration [FDA]
Cytochrome P450 (CYP) enzymes are membrane-bound hemeproteins that play a key role in metabolism of drugs and xenobiotics. Evaluation of the effect of chemicals on CYP isozymes is useful to minimize the adverse drug reactions and toxicities in drug development process. Tox21 chemicals were tested for their effect on CYP enzyme activities by using P450-Glo (TM) screening systems (Promega Corporation, Madison, WI). These systems provide a luminescent method containing proluciferin substrates and are converted to luciferin products by CYP isozymes. The luciferin products formed are detected with a luciferin detection reagent, and the amount of light produced is proportional to CYP activity. P450-Glo (TM) CYP2C19 screening system (Catalog. No. V9880) was used to detect the compounds that interfere in CYP2C19 activity. The positive control compound used for CYP2C19 assay is ketoconazole (Sigma-Aldrich, St. Louis, MO).
Tox21 Assay Protocol Summary:
Two ul of enzyme-substrate mix was dispensed into medium binding white/solid 1536-well plates (Greiner Bio-One North America Inc., Monroe, NC) using a BioRaptr Flying Reagent Dispenser (FRD, Beckman Coulter, Brea, CA). Compounds dissolved in DMSO and positive control (ketoconazole) were transferred to the assay plates at 23 nl using a Pintool station (Wako, San Diego, CA). The assay plates were incubated at room temperature for 10 min. Then 2 ul of NADPH regeneration solution was added to each well of the assay plates using an FRD and incubated at 37C for 1 h. The reaction was stopped by adding 4 ul of detection reagent using an FRD and after 20 min incubation at room temperature the luminescence signal was measured using a ViewLux plate reader (Perkin Elmer, Shelton, CT). Data were expressed as relative luminescence units.
Potency is the fitted concentration of half-maximal effect.

SMILES	Potency
OCCSCCO	active: 22.8 µM and inactive
CC(C)N(CCO)C(C)C	inactive
N#CBr	inactive
Nc1cc([N+](=O)[O-])cc([N+](=O)[O-])c1O	active: 40.8 µM
Cc1ccc([N+](=O)[O-])c([N+](=O)[O-])c1	active: 40.8 µM
N=C(N)N[N+](=O)[O-]	active: 88 µM
CC(C)OP(C)(=O)OC(C)C	active: 22.5 µM and inactive
Cc1cccc([N+](=O)[O-])c1[N+](=O)[O-]	active: 23.8 µM
CCOP(=O)(CC)OCC	inactive
CP(=O)(O)OCCC[Si](O)(O)O	inactive
C/C1=C2N=C(/C=C3N=C(/C(C)=C4\[N-][C@@](C)([C@@H]5N=C1[C@](C)(CCC(=O)NC[C@@H](C)OP(=O)([O-])O[C@H]1[C@@H](O)[C@@H](n6cnc7cc(C)c(C)cc76)O[C@@H]1CO)[C@H]5CC(N)=O)[C@@](C)(CC(N)=O)[C@@H]4CCC(N)=O)[C@@](C)(CC(N)=O)[C@@H]\3CCC(N)=O)C(C)(C)[C@@H]/2CCC(N)=O.[C-]#N.[Co+3]	inactive
COP(C)(=O)OC	inactive
Cc1c([N+](=O)[O-])cccc1[N+](=O)[O-]	inactive
O=[N+]([O-])c1cccc([N+](=O)[O-])c1	inactive
CCN(CC)CCCl	inactive
O=[N+]([O-])OCC(CO[N+](=O)[O-])(CO[N+](=O)[O-])CO[N+](=O)[O-]	inactive
CN(C)CCCl	inactive
[NH4+].[O-][Cl+3]([O-])([O-])[O-]	inactive and active: 39.9 µM
Cc1ccc([N+](=O)[O-])cc1[N+](=O)[O-]	active: 35.1 µM and inactive
CCOP(=O)(CC)Oc1ccc([N+](=O)[O-])cc1 (stereo not given)	active: 3.47 µM
